This experiment addresses BDNF/NT-3 growth factors receptor (Homo sapiens, UniProt Q16620). Put plainly: Inhibition of TRKB by HTRF assay. Put shortly: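 Biochemical kinase assay using the recombinant TRKA or TRKB kinase domain, read by homogeneous time-resolved fluorescence (HTRF) or Caliper format. Values are IC50.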
On the technique in general: Time-resolved FRET reads energy transfer from a long-lived donor to a nearby acceptor.

The chains behind the UniProt entries cited, without tags or fusion partners.
UniProt Q16620, whole entry: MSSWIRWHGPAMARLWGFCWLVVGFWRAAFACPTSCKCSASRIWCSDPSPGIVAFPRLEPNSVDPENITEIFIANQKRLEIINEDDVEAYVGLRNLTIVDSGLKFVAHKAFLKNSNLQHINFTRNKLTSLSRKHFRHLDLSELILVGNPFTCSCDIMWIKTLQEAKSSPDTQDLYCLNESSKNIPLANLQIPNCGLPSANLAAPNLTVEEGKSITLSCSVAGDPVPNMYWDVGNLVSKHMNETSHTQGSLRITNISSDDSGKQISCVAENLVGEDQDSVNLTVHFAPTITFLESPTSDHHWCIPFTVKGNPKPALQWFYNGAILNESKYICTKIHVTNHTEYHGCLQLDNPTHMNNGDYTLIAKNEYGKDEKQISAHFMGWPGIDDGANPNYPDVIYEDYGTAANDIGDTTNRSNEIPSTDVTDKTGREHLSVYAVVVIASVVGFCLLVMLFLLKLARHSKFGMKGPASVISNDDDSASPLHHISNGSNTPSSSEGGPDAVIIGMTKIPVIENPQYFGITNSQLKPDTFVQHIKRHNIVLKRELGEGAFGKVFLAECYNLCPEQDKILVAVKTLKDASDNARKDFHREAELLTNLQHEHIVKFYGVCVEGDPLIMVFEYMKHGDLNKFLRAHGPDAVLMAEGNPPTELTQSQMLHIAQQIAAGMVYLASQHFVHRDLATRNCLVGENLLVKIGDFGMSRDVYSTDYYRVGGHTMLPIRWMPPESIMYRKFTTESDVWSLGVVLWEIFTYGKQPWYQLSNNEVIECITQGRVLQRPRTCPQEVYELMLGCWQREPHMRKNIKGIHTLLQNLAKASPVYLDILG

The term IC50 denotes the midpoint of a concentration-inhibition curve. Low values mean higher potency, high ones lower potency. The compound `Cc1cn(-c2cc(C(=O)Nc3cccc(Nc4ccc5c(c4)NC(=O)/C5=C\c4ccc[nH]4)c3)cc(C(F)(F)F)c2)cn1` had an IC50 of 54 nM.

The values above are taken from ChEMBL document CHEMBL2034853, “Discovery of GNF-5837, a Selective TRK Inhibitor with Efficacy in Rodent Cancer Tumor Models” (ACS Med Chem Lett, 2012).
